In brackets after ≈: the same amount, converted by molar mass.
Assays:
Lacticaseibacillus casei = test: Compound was evaluated for growth inhibition against Lactobacillus casei ATCC 7469; format: functional, organism-based
Enterococcus faecium = test: Compound was evaluated for growth inhibition against Streptococcus faecium ATCC 8043; format: functional, organism-based

| SMILES | IC50 (Lacticaseibacillus casei) | IC50 (Enterococcus faecium) |
| --- | --- | --- |
| CC[C@@H](Cc1cnc2nc(N)nc(N)c2n1)c1ccc(C(=O)N[C@@H](CCC(=O)O)C(=O)O)cc1 | 0.23 ng/mL (≈ 0.492 nM) | – |
| CC[C@H](Cc1cnc2nc(N)nc(N)c2n1)c1ccc(C(=O)N[C@@H](CCC(=O)O)C(=O)O)cc1 | 0.29 ng/mL (≈ 0.62 nM) | – |
| CCC(Cc1cnc2nc(N)nc(N)c2n1)c1ccc(C(=O)NC(CCC(=O)O)C(=O)O)cc1 (racemic) | 0.26 ng/mL (≈ 0.556 nM) | 2.7 ng/mL (≈ 5.78 nM) |
